According to patent US20090005395A1 (Solvay Pharmaceuticals, B.V., priority 2007, published 2009):
Read-outs that look alike come from different tables or passages of the source.

By UniProt entry, the sequences of proteins in these tests, tags left out.
UniProt O00408, whole entry: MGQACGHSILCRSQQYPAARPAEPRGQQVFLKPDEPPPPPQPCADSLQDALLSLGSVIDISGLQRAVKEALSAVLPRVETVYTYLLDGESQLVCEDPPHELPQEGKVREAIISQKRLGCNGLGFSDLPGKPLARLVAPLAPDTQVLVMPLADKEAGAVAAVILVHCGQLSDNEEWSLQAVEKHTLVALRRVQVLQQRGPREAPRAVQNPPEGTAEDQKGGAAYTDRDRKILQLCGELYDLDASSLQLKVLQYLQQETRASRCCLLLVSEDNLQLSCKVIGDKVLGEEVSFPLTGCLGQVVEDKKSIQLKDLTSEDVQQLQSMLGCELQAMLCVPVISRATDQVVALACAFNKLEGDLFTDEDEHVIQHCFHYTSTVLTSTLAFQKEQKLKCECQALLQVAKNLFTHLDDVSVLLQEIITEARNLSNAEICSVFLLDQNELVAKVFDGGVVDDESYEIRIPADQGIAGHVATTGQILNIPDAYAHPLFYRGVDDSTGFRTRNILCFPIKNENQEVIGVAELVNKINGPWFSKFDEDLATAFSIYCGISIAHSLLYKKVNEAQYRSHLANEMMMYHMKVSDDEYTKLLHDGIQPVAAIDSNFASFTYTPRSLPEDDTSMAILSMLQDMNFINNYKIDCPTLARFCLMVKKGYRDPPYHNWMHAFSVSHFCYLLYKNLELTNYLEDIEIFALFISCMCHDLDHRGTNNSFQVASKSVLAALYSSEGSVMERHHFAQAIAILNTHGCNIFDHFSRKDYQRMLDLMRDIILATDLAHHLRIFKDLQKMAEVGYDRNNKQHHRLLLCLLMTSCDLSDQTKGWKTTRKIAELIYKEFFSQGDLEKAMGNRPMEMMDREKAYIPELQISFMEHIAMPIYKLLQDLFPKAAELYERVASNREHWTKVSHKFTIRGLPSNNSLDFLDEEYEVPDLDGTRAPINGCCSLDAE

How the values were obtained:
[1] = Plasma pharmacokinetics of sildenafil and its N-oxide; assay type: in vivo; conditions: male, NMRI, mouse, brain, mice, read-out: Brain/plasma ratio
Experimental: Liquid Chromatography-Tandem Mass Spectrometry (LC-MS/MS) was performed using a Sciex API4000 LC-MS/MS. […] Compound peak area was used for quantification. The calibration curves were fitted to the model y=A+Bx+Cx^2 (y is the peak area of the analyte, x is the nominal calibration level in ng/ml (plasma) or ng/g (brain), A is the intercept, B is the slope and C is the description of the curvature). 1/x^2 weighing was used. LC-MS/MS system performance was monitored using a reference solution injected at standard intervals. […] The Lower Limit Of Quantification (LLOQ) was established at 1.00 ng/ml and 5.00 ng/brain, for plasma and brain samples, respectively. Reversed phase HPLC was performed using gradient elution by a Hypersil BDS C18 100×4.6 mm 3 μm analytical column, with a temperature of 45° C. and a flow of 1.00 ml/min: […]

PDE-II = PDE-II (Homo sapiens, UniProt O00408); test: In vitro inhibition of phosphodiesterases (CEREP): PDE-II

Question: Which results are given for CCCc1nn(C)c2c(=O)[nH]c(-c3cc(S(=O)(=O)N4CCN(C)CC4)ccc3OCC)nc12 [Sildenafil, 1-[4-ethoxy-3-(6,7-dihydro-1-methyl-7-oxo-3-propyl-1H-pyrazolo[4,3-d]pyrimidin-5-yl)phenyl-sulfonyl]-4-methylpiperazine, reference compound]?
Answer: Kp ([1]; iv, i.v. 1 mg/kg): 0.4; Kp ([1]; po, p.o. 10 mg/kg): 0.3; IC50 (PDE-II): > 10 µM
